From BindingDB's records for doi:10.1016/j.bioorg.2012.08.003 (North-West University, 2012)

By UniProt entry, the sequences of proteins in these tests, tags left out.
UniProt P27338, whole entry: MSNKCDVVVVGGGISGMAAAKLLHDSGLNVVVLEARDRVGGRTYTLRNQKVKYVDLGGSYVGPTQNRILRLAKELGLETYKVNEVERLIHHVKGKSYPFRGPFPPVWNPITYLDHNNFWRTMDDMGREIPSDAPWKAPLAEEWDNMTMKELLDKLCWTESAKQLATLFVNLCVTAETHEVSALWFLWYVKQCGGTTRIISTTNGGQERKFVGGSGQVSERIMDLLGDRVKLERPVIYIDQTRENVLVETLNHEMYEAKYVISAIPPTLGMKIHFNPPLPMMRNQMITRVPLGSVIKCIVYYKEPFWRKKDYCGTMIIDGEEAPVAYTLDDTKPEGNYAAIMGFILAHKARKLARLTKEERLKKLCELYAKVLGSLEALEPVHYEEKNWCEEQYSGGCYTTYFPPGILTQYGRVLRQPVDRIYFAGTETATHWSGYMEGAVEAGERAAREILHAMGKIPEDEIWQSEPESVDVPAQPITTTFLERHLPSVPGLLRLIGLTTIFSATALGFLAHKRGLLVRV

Each compound was assayed against Amine oxidase [flavin-containing] B (Homo sapiens, UniProt P27338) (assay: Inhibition Assay). Details: pH 7.4; 37 °C.
Source text: Inhibition studies using recombinant human MAO-A and MAO-B that were obtained from commercial sources (Sigma-Aldrich).

Row | Compound | IC50
1 | O=c1ccoc2cc(OCc3cccc(Cl)c3)ccc12 [C7-substituted chromone derivative, 3d] | 17 nM
2 | O=c1ccoc2cc(OCc3ccc(F)cc3)ccc12 [C7-substituted chromone derivative, 3i] | 25 nM
3 | O=c1ccoc2cc(OCc3ccc(C(F)(F)F)cc3)ccc12 [C7-substituted chromone derivative, 3n] | 8 nM
